Data as given in patent US9040691B2, “Hydroxymethylaryl-substituted pyrrolotriazines as ALK1 inhibitors” (BAYER INTELLECTUAL PROPERTY GMBH, priority 2011, dated 2015).

Protein sequences, listed by entry. Tags and fused reporters are not part of them. Residues count along the entry.
UniProt P37023, 22-503: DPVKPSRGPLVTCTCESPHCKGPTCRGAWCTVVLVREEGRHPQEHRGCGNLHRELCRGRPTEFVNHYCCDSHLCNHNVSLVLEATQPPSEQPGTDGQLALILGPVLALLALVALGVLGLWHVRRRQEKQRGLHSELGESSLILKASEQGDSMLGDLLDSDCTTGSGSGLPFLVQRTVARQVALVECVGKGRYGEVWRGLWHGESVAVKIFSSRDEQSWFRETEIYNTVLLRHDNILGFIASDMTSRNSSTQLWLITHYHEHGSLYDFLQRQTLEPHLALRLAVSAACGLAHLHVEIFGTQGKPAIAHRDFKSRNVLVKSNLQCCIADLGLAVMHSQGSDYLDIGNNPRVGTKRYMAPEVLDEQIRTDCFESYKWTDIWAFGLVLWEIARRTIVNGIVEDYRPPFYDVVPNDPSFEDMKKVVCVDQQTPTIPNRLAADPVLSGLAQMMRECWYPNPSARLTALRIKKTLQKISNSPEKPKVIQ

What was measured:
ALK1 kinase [1] = biological target: T1, ALK1 kinase (Homo sapiens (Human), UniProt P37023); experiment: In vitro enzyme inhibition using scintillation of incorporated radio label (flashplate assay); format: biochemical; conditions: biotinylated α-casein, 33P-ATP, 500 nM ATP
Description: B-1a. In Vitro Enzyme Inhibition Using Scintillation of Incorporated Radio Label (Flashplate Assay)
Test compounds diluted in DMSO are mixed with a suitable substrate/co-substrate (here: biotinylated α-casein and ^33P-ATP) in a corresponding assay buffer. Addition of the enzyme of interest (here: ALK1 kinase) starts the enzyme reaction. The enzyme-catalyzed incorporation of radio label into the substrate is measured via scintillation. Incorporated radio label is separated from free radio label via specific binding of the biotinylated substrate to strepavidin-coated microtiter plates (flashplates) and concomitant washing steps. The scintillation signal intensity (counts per minutes, cpm) is proportional to the enzyme activity. Enzyme inhibition results in a decreased signal intensity. IC50 values of the test compounds are determined by cpm-versus-[I] plots. […]
A volume of 9 μl substrate solution is provided into each well of a 384 well microliter plate (Greiner Bio-One, Solingen, Germany), 1 μl compound solution and 5 μl of the radioactive ATP solution are added. […] Finally, 50 μl washing buffer is added, and the scintillation signal (cpm) is measured in a suitable counter (Perkin Elmer, Rodgau, Germany).

ALK1 kinase [2] = biological target: T1, ALK1 kinase; experiment: ALK1 kinase assay (ProQinase protocol); format: biochemical; conditions: ProQinase radiometric assay, casein, γ-33P-ATP
Description: B-1b. ALK1 Kinase Assay (ProQinase Protocol)
ALK1 (Invitrogen, Carlsbad, Calif., USA) kinase activity was measured at ProQinase GmbH (Freiburg, Germany) in a radiometric assay using γ-^33P-ATP and casein (Sigma, St. Louis, Mo., USA) as substrate in 96-well PerkinElmer FlashPlates™ (Boston, Mass., USA). The compounds were tested at 10 concentrations in the range of 1×10^−4 M to 3×10^−9 M in a total volume of 50 μl with a final DMSO concentration of 1% each. […]
The reaction mixtures were incubated at 30° C. for 60 minutes and stopped by adding 50 μl 2% (v/v) phosphoric acid. […] Incorporation of ^33Pi was determined with a microplate scintillation counter (Microbeta, Wallac). […]
Median values obtained from unspecific substrate binding of labelled. ATP were set as background level, while median values measured in the absence of any inhibitor were considered to reflect full activity of ALK1 kinase. […] The residual activity in the latter was calculated as follows: residual activity (%)=100×[(tca−ba)/(fa−ba)]
The residual activities for each concentration and the compound IC50 values were calculated using Quattro Workflow V3.1.0 (Quattro Research GmbH, Munich, Germany). […]

| IC50 (ALK1 kinase [1]) | IC50 (ALK1 kinase [2]) | SMILES |
| --- | --- | --- |
| 4.4 nM |  | Nc1ncnn2c(C3CCNC3)cc(-c3cc(F)c(CO)c(F)c3)c12 (racemic) [Example 8, rac-{4-[4-Amino-7-(pyrrolidin-3-yl)pyrrolo[2,1-f][1,2,4]triazin-5-yl]-2,6-difluorophenyl}methanol] |
|  | 6.9 nM | Nc1ncnn2c(C3CCNC3)cc(-c3cc(F)c(CO)c(F)c3)c12 (single isomer, unassigned; enantiomer 1) [Example 35, ent-{4-[4-Amino-7-(pyrrolidin-3-yl)pyrrolo[2,1-f][1,2,4]triazin-5-yl]-2,6-difluorophenyl}methanol (enantiomer 1)] |
|  | 21 nM | Nc1ncnn2c(C3CCNC3)cc(-c3cc(F)c(CO)c(F)c3)c12 (single isomer, unassigned; enantiomer 2) [Example 36, ent-{4-[4-Amino-7-(pyrrolidin-3-yl)pyrrolo[2,1-f][1,2,4]triazin-5-yl]-2,6-difluorophenyl}methanol (enantiomer 2)] |
